According to ChEMBL document CHEMBL1128826, “Heteroatom effect in the PKC inhibitory activities of perhydroazepine analogs of balanol” (Bioorg Med Chem Lett, 1995):

Biological target: T1, Protein kinase C epsilon type (Homo sapiens, UniProt Q02156)
T1 sequence (Q02156 whole entry): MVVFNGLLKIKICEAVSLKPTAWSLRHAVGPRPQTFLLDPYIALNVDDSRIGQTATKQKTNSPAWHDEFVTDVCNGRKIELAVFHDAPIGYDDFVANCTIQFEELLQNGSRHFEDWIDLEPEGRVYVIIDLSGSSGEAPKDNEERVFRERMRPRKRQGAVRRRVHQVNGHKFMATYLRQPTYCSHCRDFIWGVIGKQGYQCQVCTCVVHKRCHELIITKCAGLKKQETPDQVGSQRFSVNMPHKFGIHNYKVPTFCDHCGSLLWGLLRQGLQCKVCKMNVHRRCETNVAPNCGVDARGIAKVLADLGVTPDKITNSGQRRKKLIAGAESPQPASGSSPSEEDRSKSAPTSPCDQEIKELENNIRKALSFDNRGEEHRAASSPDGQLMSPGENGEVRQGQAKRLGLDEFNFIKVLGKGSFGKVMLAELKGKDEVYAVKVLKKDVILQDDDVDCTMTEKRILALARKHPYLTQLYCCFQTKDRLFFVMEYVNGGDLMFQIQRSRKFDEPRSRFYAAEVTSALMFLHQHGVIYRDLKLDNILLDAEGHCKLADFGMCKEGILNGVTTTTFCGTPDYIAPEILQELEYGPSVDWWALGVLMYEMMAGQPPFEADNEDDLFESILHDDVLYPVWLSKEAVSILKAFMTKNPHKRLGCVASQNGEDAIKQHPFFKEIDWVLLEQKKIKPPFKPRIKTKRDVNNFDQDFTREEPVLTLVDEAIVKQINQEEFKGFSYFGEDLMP
Assay: Inhibition of human Protein kinase C epsilon

IC50: 0.049 µM
Compound: O=C(N[C@H]1CNCCC[C@H]1OC(=O)c1cc(O)c(C(=O)c2c(O)cccc2C(=O)O)c(O)c1)c1ccc(O)cc1 (racemic)
